## Antibody variant affinities, Ab-14 light chain, assay B

Data: MIT Lincoln Laboratory AlphaSeq set, Li et al. 2023, doi:10.1038/s41467-023-39022-2, as distributed in FLAb.

Antigen: PDVDLGDISGINAS, a 14-residue peptide of the SARS-CoV-2 spike HR2 region.

The variants keep the heavy chain, the linker and the frameworks of Ab-14 (scFv order VH, three GGGGS repeats, VL).
VH: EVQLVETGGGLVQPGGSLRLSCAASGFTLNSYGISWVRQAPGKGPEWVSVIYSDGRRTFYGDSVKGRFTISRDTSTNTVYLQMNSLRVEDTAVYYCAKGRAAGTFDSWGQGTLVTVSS
VL: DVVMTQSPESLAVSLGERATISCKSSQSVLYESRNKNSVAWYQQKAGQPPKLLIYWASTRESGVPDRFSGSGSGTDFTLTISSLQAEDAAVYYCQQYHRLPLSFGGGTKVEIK

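Designed CDR sequences, proposed from the first random library and measured here. Their group label is 14L_Ctrl (Ctrl: baseline library sampled from a position-specific scoring matrix, with some repeated check sequences). AlphaSeq pools MATa yeast showing the antibodies with MATalpha yeast showing the peptide. Mating (16 h, 30 °C) was followed by selection of diploids and sequencing of their barcodes. Each replicate has its own calibration line, from reference interactions of the BCL2 family. Each pool was mated in six replicate cultures.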

The parent's light chain CDRs are KSSQSVLYESRNKNSVA, WASTRES, QQYHRLPLS; each variant's own CDRs replace them letter for letter.
The read-out is the apparent dissociation constant on a log10 scale (nM): the lower, the stronger.
"ND" means that the variant was in the library but no mating with the target was seen in that replicate; the authors take this as a sign of poor binding, and no number exists.
Empty control strains, which show no peptide, gave a signal in 4% of pairings with all light chain designs; the median was 2.64 and 95% of these signals were weaker than 1.59. No background was subtracted. The control count says in how many pairings with the empty strains this scFv gave a signal, with their mean in brackets.
Of ten entries with the parent sequence, four were seen in most replicates (averages 0.34 to 2.37), three in one and three in none, so single entries are noisy.
Values of this round are not directly comparable with the first-round values of the same sequences.
In the paper, a design with two or fewer of six values counts as a poor binder.

CDR-L1	CDR-L2	CDR-L3	log10 Kd, replicates	empty controls
KSSQSVLDESRPKNSVA	WASTRES	NQYHRLPLS	ND 2.22 ND ND 1.73 ND	0/18
KFSDSVLEESRNKNSVA	WASTRES	QQYMRLPLS	ND 0.14 0.58 ND 1.44 ND	0/18
KFSHSELPEARNKNSVA	WASTRTS	QQYHRLPLS	0.45 0.63 0.51 0.29 0.52 0.56	0/18
KSDQSVLYTSRNKNGVA	KASTRES	QQYDRLPLL	ND ND ND 2.04 ND ND	0/18
KYSQSVLYESRNKNSVA	WASRRES	QQYHRLPLS	ND ND 2.37 ND 2.50 3.14	0/18
KLSQSVLYESQNKNSVA	KASTRES	QQYHRLPLS	0.23 -0.09 -0.69 -0.76 -0.05 -0.27	0/18
KSSQSSLYESRNKNSVA	WASTRES	QQYHQLPLS	0.49 0.69 0.36 0.76 0.79 0.19	0/18
KSSQSVLYESRNKNSVA	WASTRES	QQYHRIPLS	2.33 ND ND ND ND 3.24	1/18 (2.25)
KSVQSVLYESRNKNSVA	GASTREQ	QQYHRLPLS	0.26 0.16 0.06 -0.05 -0.03 0.14	1/18 (2.96)
KSEQSVLYESLNKNSVA	DAQTRES	QEYHRLPLS	1.04 0.23 0.34 -0.01 0.37 0.30	1/18 (2.92)
KCSQSVLYESTNKNSVA	WASTRES	QGYHRLPLS	ND 2.30 ND 3.24 ND ND	0/18
KMSQSVLYEDLNKNSVA	GASTRES	QQYHRLPLS	ND ND ND ND ND ND	0/18
KSSHSPQYEWRAKNSVA	AASTREA	QQYHRLPLS	0.41 0.92 0.64 0.86 0.95 0.51	1/18 (2.06)
KSSDSVLYESRNKNSVA	WASTRES	QQYHRAPLS	ND ND ND ND ND ND	1/18 (0.93)
KSSQSVLYESPNKNSVA	GASTRES	QQYHRLPLS	0.00 -0.26 -0.06 -0.25 -0.06 -0.02	0/18
KSSQSTLYESRNKNSVA	KASTRES	QQYHRLPLM	0.60 0.51 0.48 -0.07 0.16 0.33	0/18
KSVQSVLYNSRFKNSVA	WASTRSS	QCYHRLPLS	ND ND ND ND ND ND	0/18
KISQSVLYEVQNKNSVN	WASTRES	QQYHRLPLS	ND ND ND ND ND ND	0/18
KSSQSVLYESYNKNSVA	KASTRES	QQYHRLPLS	0.88 1.05 0.75 0.73 0.95 0.34	0/18
KVSQSVLYESRNKNSVA	WASTRNM	QQYHRLPLT	1.64 1.31 1.24 0.91 1.20 0.70	0/18
KSSNSVLYNSREKNSVA	GASTRES	QQYHRLPLS	0.35 0.21 -0.05 0.14 0.03 0.02	1/18 (1.65)
SSSQSVLEESFNKNSVA	HASTRES	QVYHRIPLS	2.66 1.57 1.87 1.30 1.29 1.28	2/18 (2.32)
KSSQSVLYESRNVNSVA	WASQREQ	QQYHVLPLS	ND ND ND 1.24 ND ND	0/18
KSIMSVLYESRNKNSVA	WARTRES	GQYHRLPLS	ND ND ND ND ND ND	0/18
KSSQSWLYESRNKNSVA	NADTRES	QQYHRLPLS	ND ND ND ND ND ND	0/18
KSSNSVLYDGTNKNSVA	WASTRES	QQYHRLPLS	0.85 1.35 0.40 0.63 0.97 1.89	0/18
KSQQSVLYESRNKNSVA	WASTRES	QQYHREPLS	ND ND ND ND ND ND	0/18
KSSCSVLYDSTNFNSVA	WASTRES	QQYHRLPLS	ND ND ND ND ND ND	0/18
KSSQSVLYESRNKNSVA	EASNRES	QQYHRLPFS	1.34 0.05 0.30 -0.04 -0.11 0.39	0/18
KSSQSVLYESRNKNSVA	AASTRSS	QQYHRLPLS	2.17 1.56 1.85 1.24 1.75 1.78	2/18 (2.70)
KSSQSVWYESRNTNSVA	WASTRES	QQYHVLPLS	1.84 ND 2.10 1.63 2.33 1.55	2/18 (2.31)
KSSQSVLDEWNNKNSVA	WASTRES	QQYHRLPLS	1.65 1.75 1.30 1.49 1.71 1.57	0/18
KSSQSVIYESRNKNSVA	MASKRES	QQYHRLPLS	ND 2.06 0.81 0.90 3.11 1.87	0/18
KSSQSVLSESRRKNSVA	WASERES	QQYKRLPLS	1.48 3.64 ND ND 3.56 ND	1/18 (1.86)
KSSQSVLTESRNKNSVA	WANTRET	QQYFRLPLS	ND ND ND ND ND ND	0/18
KSSQSVLYESRNKNAVA	AASTRES	SQYHRLPLS	1.13 1.11 1.10 1.00 1.19 1.46	2/18 (3.01)
KSSQSVLTESRNKNSVA	WASTRES	QQYHRGPLS	ND ND ND ND ND ND	0/18
KLSQSVLYESRNKNSVA	EASTRTS	QQYHRLPLS	-0.17 -0.30 -0.17 -0.61 -0.43 -0.20	2/18 (1.73)
KSSQSVLYESRNKNSVA	NASLRES	QQCHRLPLS	1.37 1.01 0.90 1.10 1.15 1.13	3/18 (2.59)
KSSQSTLYDSREKNSVA	WASTRES	QQYHRLPDS	ND ND ND ND ND ND	0/18
KSSQSGLYCSTNENSVA	WASTRES	QQYHRLPLS	ND 4.33 1.89 2.92 ND 2.51	2/18 (2.25)
KSSQNVLYESRNKNSVA	HASQRES	QQYHRLPLS	0.41 0.24 0.11 0.46 0.20 0.74	0/18
KLSQEVLYESRNKNSVA	EASTRES	QQYHRLPLS	-0.24 -0.28 -0.33 -0.41 -0.40 -0.28	0/18
KSSQSVLKESRNKNSVA	WASTRES	QQYHRLPLS	0.40 0.40 0.29 0.12 0.29 0.48	1/18 (1.55)
KSGQSVLYESRNKNSVA	NASTRES	QQYHRLPLS	ND ND 1.68 1.02 2.24 1.87	1/18 (1.24)

Picked from the list: the 3 lowest averages where every replicate gave a value.

CDR-L1	CDR-L2	CDR-L3	log10 Kd, replicates	empty controls
KLSQEVLYESRNKNSVA	EASTRES	QQYHRLPLS	-0.24 -0.28 -0.33 -0.41 -0.40 -0.28	0/18
KLSQSVLYESRNKNSVA	EASTRTS	QQYHRLPLS	-0.17 -0.30 -0.17 -0.61 -0.43 -0.20	2/18 (1.73)
KLSQSVLYESQNKNSVA	KASTRES	QQYHRLPLS	0.23 -0.09 -0.69 -0.76 -0.05 -0.27	0/18